Consider two compounds from patent publication US20180207138A1, “METHODS FOR THE TREATMENT OF TREMORS BY POSITIVE MODULATION OF SK CHANNELS” (Cadent Therapeutics, Inc., priority 2017, published 2018).

This experiment concerns the target SK2 channel (Homo sapiens, UniProt Q9H2S1). As to conditions: concentration that increases the basal current by 100%.

In the case of `Cc1cc(C)n(-c2nc(NC3CCC(F)(F)CC3)cc(N3CCOCC3)n2)n1` [Compound 1], the “Measured SK2 SC100” value was determined as 0.6 µM.

Consider `Cc1ccn(-c2nc(NC3CCC(F)(F)CC3)cc(N3CCOCC3)n2)n1` [Compound 2], for which the “Measured SK2 SC100” value was 0.5 µM.
